From patent US10159249B2

System: maize transgenic T0 events expressing Axmi309H-Evo41
Assay type: in vivo
Conditions: 100 g AI/ha
Procedure: Regenerated T0 events from tissue culture were transplanted into two inch square pots with synthetic soil (Fafard® Mix) and controlled-released fertilizer (Haifa Multicote™; polymer-coated controlled-release fertilizer, NPK Pro 18-6-12+Micronutrients) and cultivated in the greenhouse (GH) under supplementary high pressure sodium light for 12 days at a maximum of 30° C. during the day and a minimum of 22° C. at night. Fully recovered plants were transferred into five inch square pots filled with synthetic soil and control released fertilizer under the same environmental conditions. […] All herbicide treatments were conducted in a DeVries Tracker Sprayer system with standard application protocols, which are well known in the art. As a spray control T0 events have been sprayed with the adjunvant mixture lacking the herbicide. […]

## CSc1c(C(F)(F)F)ccc(C(=O)Nc2nnnn2C)c1Cl
  share of tested events with acceptable resistance (15% or less bleached leaf area): 60%
